In patent US5679639, “Serine protease derived-polypeptides and anti-peptide antibodies, systems and therapeutic methods for inhibiting coagulation” (The Scripps Research Institute, dated 1997):

Target: activated protein C (APC) (human)
Assay: cell-based or functional assay

B1: recombinant mutant (Arg358)-α1-antitrypsin (other)
chain: EDPQGDAAQKTDTSHHDQDHPTFNKITPNLAEFAFSLYRQLAHQSNSTNIFFSPVSIATAFAMLSLGTKADTHDEILEGLNFNLTEIPEAQIHEGFQELLRTLNQPDSQLQLTTGNGLFLSEGLKLVDKFLEDVKKLYHSEAFTVNFGDTEEAKKQINDYVEKGTQGKIVDLVKELDRDTVFALVNYIFFKGKWERPFEVKDTEEEDFHVDQVTTVKVPMMKRLGMFNIQHCKKLSSWVLLMKYLGNATAIFFLPDEGKLQHLENELTHDIITKFLENEDRRSASLHLPKLSITGTYDLKSVLGQLGITKVFSNGADLSGVTEEAPLKLSKAVHKAVLTIDEKGTEAAGAMFLEAIPRSIPPEVKFNKPFVFLMIEQNTKSPLFMGKVVNPTQK
- half-life of APC amidolytic activity in the presence of the inhibitor: 2 min
